Data from patent publication US10781185B2, “Heterocyclic compounds for the inhibition of PASK” (BioEnergenix LLC, priority 2009, dated 2020).

Sequences of proteins named here, by UniProt entry; tags and fusion partners are left off. Residues count along the entry.
UniProt Q96RG2, 879-1323, stated change not applied: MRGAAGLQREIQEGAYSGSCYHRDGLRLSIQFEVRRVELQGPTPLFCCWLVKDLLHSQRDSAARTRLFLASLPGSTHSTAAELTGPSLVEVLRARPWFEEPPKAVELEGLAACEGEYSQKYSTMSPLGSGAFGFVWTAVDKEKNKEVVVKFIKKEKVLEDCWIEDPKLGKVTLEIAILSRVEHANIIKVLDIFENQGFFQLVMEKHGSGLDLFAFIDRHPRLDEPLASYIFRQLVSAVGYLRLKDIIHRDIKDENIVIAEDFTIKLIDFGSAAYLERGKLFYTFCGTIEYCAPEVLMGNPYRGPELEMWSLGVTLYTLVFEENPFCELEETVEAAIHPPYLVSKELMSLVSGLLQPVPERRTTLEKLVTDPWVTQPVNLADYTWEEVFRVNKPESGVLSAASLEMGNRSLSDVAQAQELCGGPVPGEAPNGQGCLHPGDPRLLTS
UniProt Q96RG2, 999-1251: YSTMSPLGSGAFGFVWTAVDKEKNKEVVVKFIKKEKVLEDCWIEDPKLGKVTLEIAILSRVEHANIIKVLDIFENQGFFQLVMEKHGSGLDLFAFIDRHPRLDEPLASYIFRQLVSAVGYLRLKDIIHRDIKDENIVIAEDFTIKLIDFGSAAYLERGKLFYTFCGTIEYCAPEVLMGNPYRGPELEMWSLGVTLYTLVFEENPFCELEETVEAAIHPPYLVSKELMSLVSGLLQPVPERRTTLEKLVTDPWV

Legend:
PASK [1] = target: PASK (UniProt # Q96RG2; human recombinant N-terminal GST tagged construct, residues 879-1323) (Homo sapiens (Human), UniProt Q96RG2); assay: PASK ATP Radiochemical Assay; type: biochemical; settings: 33P-ATP radiochemical, Myelin Basic Protein substrate; read-out: IC50 Kinase Domain
Description: PASK ATP Radiochemical Assay
Test compounds in DMSO are then added and the mixture, followed by delivery of ^33P-ATP (specific activity 0.01 μCi/μl final) to initiate the reaction. […] The entire reaction mixture is washed through onto a P81 Phosphocellulose paper and washed three times for 10 minutes in 75 mM phosphoric acid and once in methanol prior to drying and scintillation counting.

PASK [2] = target: PASK (Homo sapiens (Human), UniProt Q96RG2); assay: PAS Kinase FRET Assay; type: biochemical; settings: TR-FRET, Ulight-peptide substrate; read-out: IC50 Kinase Domain
Excerpt: PAS Kinase FRET Assay The aim of the FRET assay is to determine the inhibition potential of test compounds on targeted kinase. This assay platform provides a homogenous screening method for measuring kinase activity by quantitating the amount of phospho-substrate in solution following a kinase reaction. In the presence of kinase and ATP, the Ulight-peptide is phosphorylated and captured by an anti-phospho-substrate antibody, which brings the Eu chelate donor and Ulight acceptor dyes into close proximity. […] The contents of the plate were and incubated at RT for 1 h. The reaction was stopped by adding 5 μl of stop solution to each test well followed by mixing and incubation at RT for 10 minutes. 5 μl of detection mix (detection antibody diluted in detection buffer) was added; the contents of the plate were mixed and then incubated in the dark for 1 hour at RT. […] The results were graphed to calculate the EC50. Titration of ATP at the EC50 concentration of kinase to determine ATP Km,app. was performed using the following method. […] The contents of the plate were and incubated at RT for 1 h. The reaction was stopped by adding 5 μl of stop solution to each test well followed by mixing and incubation at RT for 10 minutes. 5 μl of detection mix (detection antibody diluted in detection buffer) was added; the contents of the plate were mixed and then incubated in the dark for 1 hour at RT. […]

For `O=C(O)c1ccc2nc(-c3ccccc3)c(N3CCNCC3)nc2c1` [Example 5, 2-Phenyl-3-(piperazin-1-yl)quinoxaline-6-carboxylic acid], the IC50 (PASK [1]) was > 10 µM.
`C[C@H]1CCCN1c1nc2cc(C(=O)O)ccc2nc1-c1ccc(F)cc1` [Example 74, (S)-2-(4-Fluorophenyl)-3-(2-methylpyrrolidin-1-yl)quinoxaline-6-carboxylic acid] was tested, and the IC50 (PASK [2]) was ≤ 10 µM and the IC50 (PASK [1]) was < 10 µM.
